{
  "sequences": {"note": "By UniProt entry, the sequences of proteins in these tests, tags left out.", "UniProt Q9UIQ6, whole entry": "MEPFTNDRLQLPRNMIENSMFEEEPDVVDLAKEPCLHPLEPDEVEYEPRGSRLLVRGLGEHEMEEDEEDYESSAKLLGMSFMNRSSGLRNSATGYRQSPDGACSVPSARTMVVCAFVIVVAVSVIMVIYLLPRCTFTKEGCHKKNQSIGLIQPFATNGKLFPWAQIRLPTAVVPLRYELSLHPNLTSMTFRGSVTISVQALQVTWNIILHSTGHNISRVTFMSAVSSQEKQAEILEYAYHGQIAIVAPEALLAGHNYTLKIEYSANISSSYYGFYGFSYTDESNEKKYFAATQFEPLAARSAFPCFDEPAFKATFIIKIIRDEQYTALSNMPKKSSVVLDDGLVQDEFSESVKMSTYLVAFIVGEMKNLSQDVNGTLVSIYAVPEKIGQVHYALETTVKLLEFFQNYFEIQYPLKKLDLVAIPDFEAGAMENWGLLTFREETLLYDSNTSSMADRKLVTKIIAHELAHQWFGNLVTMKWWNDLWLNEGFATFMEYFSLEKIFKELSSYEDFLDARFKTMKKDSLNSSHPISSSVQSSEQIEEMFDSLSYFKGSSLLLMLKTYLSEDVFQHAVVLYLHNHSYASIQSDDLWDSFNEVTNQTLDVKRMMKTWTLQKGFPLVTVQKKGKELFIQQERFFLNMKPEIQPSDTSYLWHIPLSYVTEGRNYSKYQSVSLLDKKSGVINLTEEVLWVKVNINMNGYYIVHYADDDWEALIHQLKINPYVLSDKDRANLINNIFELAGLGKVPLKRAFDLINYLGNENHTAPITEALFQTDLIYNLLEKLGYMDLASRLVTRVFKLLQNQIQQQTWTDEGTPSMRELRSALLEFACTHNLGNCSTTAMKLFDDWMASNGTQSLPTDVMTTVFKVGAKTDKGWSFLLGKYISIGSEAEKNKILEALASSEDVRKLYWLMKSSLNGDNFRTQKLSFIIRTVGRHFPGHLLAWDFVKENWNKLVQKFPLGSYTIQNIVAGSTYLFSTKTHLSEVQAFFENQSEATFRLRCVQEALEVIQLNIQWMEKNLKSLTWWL"},
  "source": "patent US20080026409A1",
  "about": "“SALT-SENSITIVE HYPERTENSION” (THE BOARD OF TRUSTEES OF THE UNIVERSITY OF ILLINOIS, priority 2006, published 2008)",
  "key": {"AT4 receptor": {"target": "AT4 receptor (Homo sapiens, UniProt Q9UIQ6)", "conditions": "AT4 receptor binding; cited from earlier work"}, "[1]": {"system": "Na/K ATPase in LLC-PK1 and HK2 cells", "experiment": "Planned Na/K ATPase expression and activity studies in cultured renal epithelial cells", "conditions": "expected result"}},
  "data": [
    {"compound": "CC(C)[C@H](N)CN[C@@H](Cc1ccc(O)cc1)C(=O)N[C@H](CN[C@@H](Cc1cnc[nH]1)C(=O)N1CCC[C@H]1C(=O)N[C@@H](Cc1ccccc1)C(=O)O)C(C)C", "values": [
      {"measurement": "Bmax", "setting": "AT4 receptor", "value": "508+/−30 fmol/mg protein"},
      {"measurement": "Kd", "setting": "AT4 receptor", "value": 3, "unit": "nM"},
      {"measurement": "regulation of Na/K ATPase by APN", "setting": "[1]", "value": "reduce regulation"}
    ]}
  ]
}
